High-throughput results (PubChem BioAssay)
HCMV UL50-53 inh: inhibitors of HCMV UL50-UL53 nuclear egress complex interaction; inhibition, % (no concentration beside the values); HTRF UL50-UL53 interaction, normalized percent inhibition; hit rate 0.15% among 190,000; in the data active = inhibition above about 27%, passing the limit was not always enough
GIV-Gai inh: GIV-Galpha-i interaction inhibition; P08753; Galpha-i3/FITC-GIV peptide fluorescence polarization, 90 min; active compounds read low; scaled: aluminum fluoride 0%, vehicle 100%; percent of control (FP), % (no concentration beside the values); 210,000 compounds, 0.42% hits; AID 1224905;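 active means replicate mean at 85% of control or lower, very high polarization wells dropped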;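 further: wells of about 15 µL received 100 nL stock; the first replicate is given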
An asterisk follows results filed as active; / = no result given; ! = not active in a repeat. The full list was thinned out, with hits kept by preference.

1	O=C(COC(=O)c1n[nH]c(=O)c2ccccc12)NC1C2CC3CC(C2)CC1C3 (configuration not stated)
2	CCOc1cccc2cc(C(=O)Nc3nccs3)c(=Nc3ccc(C)c(C)c3)oc12
3	Cc1ccc(NC2=CC(=O)c3sc(C)nc3C2=O)cc1
4	Cc1ccc(Nc2nnc(C)c(=O)[nH]2)cc1
5	Cc1ccccc1-c1noc(-c2nnn(-c3ccc(Cl)cc3)c2C)n1

Screen / compound no.	1	2	3	4	5
HCMV UL50-53 inh	-13.6	/	103.2*!	-3.9	-23.4
GIV-Gai inh	/	102.8	/	101.2	104.1

6	COc1ccccc1-c1nnc2sc(-c3cc(C)nc4ccccc34)nn12
7	COc1cc(-c2c(C#N)c(SCC#N)nc(N)c2C(=O)OC(C)C)cc(OC)c1OC
8	CCOc1ccc(-c2c(C#N)c(N)nc(SCC#N)c2C#N)cc1
9	Cc1ccc(Cl)cc1N1C(=O)C2C(C1=O)C1(C)c3ccccc3C2(C)c2ccccc21 (configuration not stated)
10	Nc1nc2c(s1)CCc1c-2cnn1-c1ccccc1

Screen / compound no.	6	7	8	9	10
HCMV UL50-53 inh	-42.8	63.3*	-10.9	/	62.7*
GIV-Gai inh	108.9	/	/	102.2	/

11	Cc1c(-c2ccnc(N)n2)cnn1-c1ccccc1
12	CC(C)(C)OC(=O)NCc1cccs1
13	Nc1ncc(-c2nc3ccccc3s2)c(N)n1
14	Nc1ccc(-c2nc3ccccc3s2)cc1
15	O=C(Nc1ccc(Cl)cn1)C1Cc2ccccc2C1

Screen / compound no.	11	12	13	14	15
HCMV UL50-53 inh	-24.1	7.2	-13.8	-35.1	-30.9
GIV-Gai inh	105.0	104.2	-55.4*	/	103.4

Exported as labelled records: entries from further up
#3 Cc1ccc(NC2=CC(=O)c3sc(C)nc3C2=O)cc1
  HCMV UL50-53 inh: 103.2*!; GIV-Gai inh: /
#4 Cc1ccc(Nc2nnc(C)c(=O)[nH]2)cc1
  HCMV UL50-53 inh: -3.9; GIV-Gai inh: 101.2
#5 Cc1ccccc1-c1noc(-c2nnn(-c3ccc(Cl)cc3)c2C)n1
  HCMV UL50-53 inh: -23.4; GIV-Gai inh: 104.1
#6 COc1ccccc1-c1nnc2sc(-c3cc(C)nc4ccccc34)nn12
  HCMV UL50-53 inh: -42.8; GIV-Gai inh: 108.9

Next structures
16	COc1ccc(C2C=C(c3ccc(Cl)cc3)Nc3nc(-c4ccc(Cl)cc4)nn32)cc1 (configuration not stated)
17	COc1ccc(C(=O)Nc2nc3n(n2)C(c2ccc(Cl)cc2)C=C(c2ccccc2)N3)cc1OC (configuration not stated)
18	O=C(Nc1nc2n(n1)C(c1ccc(Cl)cc1)C=C(c1ccccc1)N2)c1ccco1 (configuration not stated)
19	COc1ccc(C2C=C(c3ccccc3)Nc3nc(NC(=O)c4ccc(C)cc4)nn32)cc1 (configuration not stated)
20	Cc1ccc(C2=CC(c3ccc(Cl)cc3)n3nc(-c4ccc(C)cc4)nc3N2)cc1 (configuration not stated)

Screen / compound no.	16	17	18	19	20
HCMV UL50-53 inh	6.4	-65.4	-35.5	-29.2	12.5
GIV-Gai inh	-8.2*!	40.5*	-44.3*	128.0	101.3

21	O=C(Nc1nc2n(n1)C(c1ccc(F)cc1)C=C(c1ccccc1)N2)c1ccco1 (configuration not stated)
22	Cc1ccc2oc(=O)c3cnn(CC(=O)N4CCC(N5CCCCC5)CC4)c3c2c1
23	COc1ccc2nc3sc(C(=O)N4CCCC4)c(N)c3cc2c1
24	Nc1c(C(=O)N2CCOCC2)sc2nc3c(cc12)CCCC3
25	Cc1cc(C)c2nc3sc(C(=O)N4CCOCC4)c(N)c3cc2c1

Screen / compound no.	21	22	23	24	25
HCMV UL50-53 inh	-50.9	-21.4	-55.4	-72.9	-105.5
GIV-Gai inh	130.2	98.7	-62.1*	105.0	-49.5*

26	Cc1ccc2nc3sc(C(=O)O)c(N)c3cc2c1
27	CCc1cc(C(=O)N(CC)Cc2ccncc2)cs1
28	CCOC(=O)c1c(C)sc(-c2c(-c3cc(C)ccc3C)[nH]c3c2c(=O)n(C)c(=O)n3C)c1O
29	CCOC(=O)c1c(C)sc(-c2c(-c3cccc(Cl)c3)[nH]c3c2c(=O)n(C)c(=O)n3C)c1O
30	Cc1csc(-c2cc(S(=O)(=O)N3CCN(Cc4ccc5c(c4)OCO5)CC3)c(C)s2)n1

Screen / compound no.	26	27	28	29	30
HCMV UL50-53 inh	-108.5	-19.6	15.2	-25.4	/
GIV-Gai inh	105.1	101.2	195.0	-63.4*	-0.1*

31	Cc1cc(C)c(S(=O)(=O)N2CCN(Cc3ccc4c(c3)OCO4)CC2)cc1C
32	C1=C(c2ccc3c(c2)OCO3)Nc2ncnn2C1c1cccs1 (configuration not stated)
33	C1=C(c2ccccc2)Nc2ncnn2C1c1cccs1 (configuration not stated)
34	C1=C(c2ccccc2)Nc2ncnn2C1c1ccc2c(c1)OCO2 (configuration not stated)
35	CN(C)c1ccc(C2C=C(c3ccccc3)Nc3ncnn32)cc1 (configuration not stated)

Screen / compound no.	31	32	33	34	35
HCMV UL50-53 inh	-23.9	/	/	-30.0	/
GIV-Gai inh	100.6	-22.3*	-24.0*	102.6	134.5

36	C=CCn1c2ccccc2c2nn3cnnc3nc21
37	C1=CCC(CNCCCN2CCOCC2)CC1 (configuration not stated)
38	O/N=C/c1ccc(N2CCOCC2)s1
39	C=CC(=O)Nc1cccc(Oc2ccnc3[nH]ccc23)c1
40	C=CC(=O)Nc1cccc(Oc2ccnc(Nc3ccc(N4CCN(C)CC4)cc3)n2)c1

Screen / compound no.	36	37	38	39	40
HCMV UL50-53 inh	-148.6	6.9	-46.6	33.4*	-6.2
GIV-Gai inh	96.9	103.6	/	/	/

41	Cc1ccc(-c2nc3c4ccccc4n(CC(=O)c4c[nH]c5ccccc45)c(=O)n3n2)cc1
42	Cc1cc2nc(NCc3ccc4c(c3)OCO4)c(C(=O)OC(C)C)nc2cc1C
43	CCOC(=O)c1nc(NCc2ccc3c(c2)OCO3)c2ccccc2n1
44	CCOC(=O)C1=C(C)N=c2s/c(=C\c3cc(Br)c(OC)cc3OC)c(=O)n2C1c1cccs1 (configuration not stated)
45	CCOC(=O)C1=C(C)N=c2s/c(=C\c3cc(Br)c(O)c(OC)c3)c(=O)n2C1c1cccs1 (configuration not stated)

Screen / compound no.	41	42	43	44	45
HCMV UL50-53 inh	/	-22.9	-17.1	-30.3	-17.8
GIV-Gai inh	111.5	76.0*	101.9	146.7	76.7*

46	CCOC(=O)C1=C(C)N=c2s/c(=C\c3cc(OC)c(OC)c(OC)c3)c(=O)n2C1c1ccc2c(c1)OCO2 (configuration not stated)
47	CCOC(=O)C1=C(C)N=c2s/c(=C\c3cc(Br)c(O)c(OC)c3)c(=O)n2C1c1ccc2c(c1)OCO2 (configuration not stated)
48	CC(C)CN=CC1=C(O)CC(C)(C)CC1=O
49	CCN1/C(=C/C2=CC(=O)CC(C)(C)C2)Sc2ccccc21
50	CCN1C(=O)CCSc2ccccc21

Screen / compound no.	46	47	48	49	50
HCMV UL50-53 inh	-22.4	-23.2	/	/	-41.1
GIV-Gai inh	102.8	-56.8*	97.8	-23.8*	103.9

51	CCN1/C(=C\C(=O)C2CC2)Sc2ccccc21
52	CCN1/C(=C\C=C2C(=O)OC(C)(C)OC2=O)Sc2ccccc21
53	Cc1cc(C)c(C#N)c(Oc2cccc(NC(=O)CC(C)C)c2)n1
54	CCC(=O)Nc1cccc(-c2noc(C3CCCN(C(=O)c4ccc(C)c(C)c4)C3)n2)c1 (configuration not stated)
55	CC(C)C(NC(=O)c1ccc(C(C)(C)C)cc1)C(=O)N1CCC1 (configuration not stated)

Screen / compound no.	51	52	53	54	55
HCMV UL50-53 inh	-26.9	-25.3	/	/	-21.3
GIV-Gai inh	99.8	-33.6*	116.1	104.8	/

56	COc1ccc(S(N)(=O)=O)cc1-c1nnc2c3ccccc3c(C)nn12
57	COc1ccc(S(=O)(=O)N2CCOCC2)cc1-c1nnc2c3ccccc3c(C)nn12
58	O=C(Nc1ccc(N2CCCCC2)cc1)C1CCCC1
59	Cn1c(-c2ccccc2)cc(C=Nc2ccccc2)c1O
60	CC(C)N=Cc1cc2n(c1O)-c1ccccc1C2=O

Screen / compound no.	56	57	58	59	60
HCMV UL50-53 inh	/	54.1*	-8.0	/	-120.3
GIV-Gai inh	110.1	106.4	/	116.8	-20.3*

61	CCC(C(=O)N1CCN(CC)CC1)N1C(=O)CCCc2ccccc21 (configuration not stated)
62	O=c1oc2ccccc2nc1/C=C(\O)c1ccccc1
63	Cc1nc(C)c(/C(O)=C/c2nc3cc(Cl)ccc3oc2=O)o1
64	O=c1oc2ccc(Cl)cc2nc1/C=C(\O)c1ccco1
65	CC(C)(C)/C(O)=C/c1nc2ccccc2oc1=O

Screen / compound no.	61	62	63	64	65
HCMV UL50-53 inh	-8.6	4.5	/	-7.2	/
GIV-Gai inh	109.5	46.1*	110.7	2.2*	102.9

66	CC(=O)N1CCCc2cc(NC(=O)c3ccccc3Br)ccc21
67	Cc1cc(N)n(C(C)(C)C)n1
68	CC(=O)Oc1ccc2cc(-c3nnc(-c4ccccc4)o3)c(=O)oc2c1
69	CC(=O)Oc1ccc2cc(-c3nc4c(s3)CCc3ccccc3-4)c(=O)oc2c1

Screen / compound no.	66	67	68	69
HCMV UL50-53 inh	-7.0	13.1	-31.7	/
GIV-Gai inh	103.2	102.3	172.8	-78.8*
